Reference: ChEMBL document CHEMBL3392954, “Discovery of novel indole derivatives as allosteric inhibitors of fructose-1,6-bisphosphatase” (Eur J Med Chem, 2015)

Biological target: T1, Fructose-1,6-bisphosphatase 1 (Homo sapiens) (UniProt P09467)
T1 sequence (whole entry): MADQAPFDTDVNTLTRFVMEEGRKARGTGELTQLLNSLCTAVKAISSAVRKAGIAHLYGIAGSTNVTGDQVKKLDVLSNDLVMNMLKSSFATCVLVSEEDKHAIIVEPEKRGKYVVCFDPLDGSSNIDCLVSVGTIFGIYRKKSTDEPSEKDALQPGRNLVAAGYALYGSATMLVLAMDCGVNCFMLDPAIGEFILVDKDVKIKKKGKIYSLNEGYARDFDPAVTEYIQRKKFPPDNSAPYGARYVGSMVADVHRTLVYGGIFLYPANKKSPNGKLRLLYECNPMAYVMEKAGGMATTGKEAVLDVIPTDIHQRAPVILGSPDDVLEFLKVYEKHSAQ
Conditions: 50 uM

Row | inhibition [%] | SMILES
1 | 79.5 | O=C(O)CCc1c(C(=O)O)[nH]c2cc([N+](=O)[O-])ccc12
2 | 57.5 | O=C(O)CCc1c(C(=O)O)[nH]c2cccc([N+](=O)[O-])c12
